Key:
JNK1 = JNK1 (Homo sapiens (Human), UniProt P45983); experiment: In Vitro JNK1 Assay (TR-FRET, phosphorylation of GST-c-Jun); type: biochemical
Protocol: Phosphorylation of GST-c-Jun protein (amino acid residues 1-79) was measured as JNK1 activity. […] The reaction buffer contained 50 mM HEPES, pH […], 1 mM DTT, 0.1 mM Na3VO4 and 0.2 mg/mL BSA. After 30 min. incubation at room temperature, the reaction was terminated by adding buffer containing 8 mM EDTA and a polyclonal anti-phospho-c-Jun antibody (Cell Signaling #9261L), followed by an additional incubation of 30 min. at room temperature. […] Time-resolved Fluorescence Resonance Energy Transfer (TR-FRET) signals were measured 1 hr. later on the EnVision reader (Perkin Elmer). Compound potency was assessed at 10 serially diluted concentrations. Percentage of inhibition at each concentration was determined to generate an IC50 value for each compound.

Chains of the proteins cited; added tags and fusions are not shown. Lines headed by an entry give the natural chain unless they say otherwise; changes in a name come on top.
UniProt P45983: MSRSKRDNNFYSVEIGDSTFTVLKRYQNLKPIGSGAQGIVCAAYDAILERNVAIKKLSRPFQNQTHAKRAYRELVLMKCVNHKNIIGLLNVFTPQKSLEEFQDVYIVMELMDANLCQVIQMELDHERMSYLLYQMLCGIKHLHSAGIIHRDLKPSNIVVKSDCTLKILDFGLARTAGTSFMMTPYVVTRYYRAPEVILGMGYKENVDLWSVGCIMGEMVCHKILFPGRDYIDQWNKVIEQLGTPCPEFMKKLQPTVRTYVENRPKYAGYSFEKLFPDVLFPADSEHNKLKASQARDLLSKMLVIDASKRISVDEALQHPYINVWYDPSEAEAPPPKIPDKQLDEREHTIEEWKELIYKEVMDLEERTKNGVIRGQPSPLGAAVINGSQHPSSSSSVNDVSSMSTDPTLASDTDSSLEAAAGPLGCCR

[1] = tested on: phospho(Ser63)-c-jun in HK-2 cells; experiment: Cell-Based Assay for JNK Inhibitors (in-cell ELISA, phospho(Ser63)-c-jun after TNFα); conditions: Homo sapiens, HK-2, read-out: HK-2, EC50 (μM)
Protocol: Cell-Based Assay for JNK Inhibitors
The cell-based assay employed the in-cell ELISA method to determine the ability of compounds to prevent the generation of phospho(Ser63)-c-jun in HK-2 cells (human proximal tubule cells) in response to stimulation with tumor necrosis factor α (TNFα). In brief, for quantification of phospho(Ser63)-c-jun, the cells (in 96-well format) were fixed and permeablized then incubated sequentially with a rabbit anti-phospho-c-jun First Antibody specific for the presence of the phospho-Ser63 epitope and a donkey anti-rabbit IgG Second Antibody linked to horseradish peroxidase (HRP) for colorimetric quantitation of binding. […] Blank wells received no TNFα stimulation or compound. Additional Control wells received TNFα stimulation, but no compound.
Stock cultures of HK-2 cells (ATCC, Manassas, Va.) were grown under a 5% CO2/[…] atmosphere at 37 degrees C. in Keratinocyte-SFM medium (KSFM, Invitrogen, Grand Island, N.Y.) containing 5 μg/L epidermal growth factor and 5 mg/L bovine pituitary extract (both supplied with the medium), additionally supplemented with 10% (v/v) fetal calf serum (FCS; Invitrogen, Grand Island, N.Y.) and 1% (v/v) antibiotic-antimycotic (ABAM: Sigma, St. Louis, Mo.). […] Absorbance was determined at a 450 nm wavelength using a spectrophotometer (Molecular Devices SpectraMax 250).

**Q.** What does the source list for `COC(=O)c1c(CNC(=O)c2ccc(F)c(F)c2)c(=O)c2ccc(Cl)cc2n1-c1ccccc1` [Example I-137, 7-Chloro-3-[(3,4-difluoro-benzoylamino)-methyl]-4-oxo-1-phenyl-1,4-dihydro-quinoline-2-carboxylic acid methyl ester]?
**A.** IC50 (JNK1): 0.012 µM; EC50 [1]: 10 µM
